Experiments:
Nitric oxide synthase 1 [1] = molecular target: Nitric oxide synthase 1 (Rattus norvegicus, UniProt P29476)
Nitric oxide synthase 1 [2] = molecular target: Nitric oxide synthase 1 (Homo sapiens, UniProt P29475)

Chains of the proteins cited; added tags and fusions are not shown.
UniProt P29476, whole entry: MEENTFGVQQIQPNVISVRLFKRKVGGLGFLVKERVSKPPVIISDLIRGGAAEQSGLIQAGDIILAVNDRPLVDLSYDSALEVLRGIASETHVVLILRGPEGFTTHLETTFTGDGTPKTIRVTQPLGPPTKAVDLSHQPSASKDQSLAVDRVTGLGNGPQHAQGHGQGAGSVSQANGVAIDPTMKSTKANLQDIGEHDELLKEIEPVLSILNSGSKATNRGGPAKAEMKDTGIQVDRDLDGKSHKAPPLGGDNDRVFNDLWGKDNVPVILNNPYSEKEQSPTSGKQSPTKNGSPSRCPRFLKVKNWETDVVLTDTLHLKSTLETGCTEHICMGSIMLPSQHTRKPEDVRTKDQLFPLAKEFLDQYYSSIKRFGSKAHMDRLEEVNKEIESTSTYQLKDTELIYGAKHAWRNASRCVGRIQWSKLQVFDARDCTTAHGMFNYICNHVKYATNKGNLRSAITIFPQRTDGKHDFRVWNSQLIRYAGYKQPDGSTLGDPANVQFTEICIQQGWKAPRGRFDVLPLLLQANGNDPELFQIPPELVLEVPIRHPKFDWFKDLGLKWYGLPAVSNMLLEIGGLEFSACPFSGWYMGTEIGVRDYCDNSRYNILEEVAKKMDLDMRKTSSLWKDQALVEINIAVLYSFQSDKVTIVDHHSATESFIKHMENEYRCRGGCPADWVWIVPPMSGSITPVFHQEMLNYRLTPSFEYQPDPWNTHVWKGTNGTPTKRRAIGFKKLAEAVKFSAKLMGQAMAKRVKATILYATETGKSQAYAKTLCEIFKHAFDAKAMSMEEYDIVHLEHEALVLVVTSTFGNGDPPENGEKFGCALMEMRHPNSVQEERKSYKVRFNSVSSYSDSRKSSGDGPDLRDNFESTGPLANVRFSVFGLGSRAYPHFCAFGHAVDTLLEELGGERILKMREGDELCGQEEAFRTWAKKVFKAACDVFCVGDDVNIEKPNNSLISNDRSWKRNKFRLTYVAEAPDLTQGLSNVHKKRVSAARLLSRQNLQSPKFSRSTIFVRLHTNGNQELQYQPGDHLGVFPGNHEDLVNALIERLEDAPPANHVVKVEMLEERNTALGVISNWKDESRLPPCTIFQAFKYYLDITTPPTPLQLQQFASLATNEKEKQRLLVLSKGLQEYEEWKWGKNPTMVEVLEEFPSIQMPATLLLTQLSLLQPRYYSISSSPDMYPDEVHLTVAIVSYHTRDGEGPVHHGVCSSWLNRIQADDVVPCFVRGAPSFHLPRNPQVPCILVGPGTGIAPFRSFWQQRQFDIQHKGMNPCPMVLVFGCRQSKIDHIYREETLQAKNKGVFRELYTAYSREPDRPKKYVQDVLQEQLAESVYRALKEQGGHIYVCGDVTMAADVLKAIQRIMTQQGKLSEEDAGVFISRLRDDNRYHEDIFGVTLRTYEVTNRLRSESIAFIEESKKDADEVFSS
UniProt P29475, whole entry: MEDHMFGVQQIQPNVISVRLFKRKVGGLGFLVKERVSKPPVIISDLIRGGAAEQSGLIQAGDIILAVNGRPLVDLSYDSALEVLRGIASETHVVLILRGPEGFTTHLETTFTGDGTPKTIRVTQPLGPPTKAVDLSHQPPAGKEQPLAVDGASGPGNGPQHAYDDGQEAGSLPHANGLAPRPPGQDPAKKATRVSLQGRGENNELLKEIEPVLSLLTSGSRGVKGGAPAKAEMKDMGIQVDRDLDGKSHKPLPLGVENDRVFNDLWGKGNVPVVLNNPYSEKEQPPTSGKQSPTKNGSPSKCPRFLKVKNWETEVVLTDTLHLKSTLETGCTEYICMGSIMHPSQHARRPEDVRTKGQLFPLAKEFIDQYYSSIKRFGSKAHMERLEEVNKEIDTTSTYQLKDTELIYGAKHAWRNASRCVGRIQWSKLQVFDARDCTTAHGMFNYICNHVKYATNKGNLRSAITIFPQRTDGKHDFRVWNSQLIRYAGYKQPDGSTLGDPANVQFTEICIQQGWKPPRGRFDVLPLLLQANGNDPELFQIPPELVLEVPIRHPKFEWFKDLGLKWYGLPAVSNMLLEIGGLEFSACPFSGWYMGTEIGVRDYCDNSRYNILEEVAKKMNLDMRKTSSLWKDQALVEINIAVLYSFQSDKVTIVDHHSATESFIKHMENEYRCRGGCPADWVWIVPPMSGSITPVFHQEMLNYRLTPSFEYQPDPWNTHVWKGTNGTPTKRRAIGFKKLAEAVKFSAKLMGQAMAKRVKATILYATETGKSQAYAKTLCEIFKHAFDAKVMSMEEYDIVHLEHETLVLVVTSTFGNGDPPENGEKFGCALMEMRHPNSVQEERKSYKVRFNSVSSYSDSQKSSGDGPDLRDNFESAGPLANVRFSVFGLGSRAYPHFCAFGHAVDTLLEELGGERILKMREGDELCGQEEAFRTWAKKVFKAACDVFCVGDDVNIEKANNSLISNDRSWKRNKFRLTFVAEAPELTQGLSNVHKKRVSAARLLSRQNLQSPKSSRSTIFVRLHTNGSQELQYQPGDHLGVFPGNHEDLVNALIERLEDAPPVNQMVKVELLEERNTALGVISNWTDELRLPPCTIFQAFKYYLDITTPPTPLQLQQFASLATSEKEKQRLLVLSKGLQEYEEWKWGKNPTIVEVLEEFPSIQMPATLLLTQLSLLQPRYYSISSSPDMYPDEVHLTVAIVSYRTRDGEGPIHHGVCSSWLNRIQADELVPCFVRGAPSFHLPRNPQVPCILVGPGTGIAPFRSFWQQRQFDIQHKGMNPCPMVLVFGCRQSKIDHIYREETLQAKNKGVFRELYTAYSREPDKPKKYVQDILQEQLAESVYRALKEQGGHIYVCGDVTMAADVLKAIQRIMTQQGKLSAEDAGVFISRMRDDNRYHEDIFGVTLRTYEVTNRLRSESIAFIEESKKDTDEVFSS

COc1ccncc1CCCNCc1ccc2ccc(N)nc2c1
Ki (Nitric oxide synthase 1 [1]): 0.05 µM | Ki (Nitric oxide synthase 1 [2]): 0.073 µM
